scFv variants of Ab-14 (heavy chain) against a SARS-CoV-2 spike peptide

Target peptide (SARS-CoV-2 spike, HR2 region): PDVDLGDISGINAS

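Designed CDR sequences, proposed from the first random library and measured here. Group labels follow the data file (Ctrl: baseline library sampled from a position-specific scoring matrix, with some repeated check sequences; GPLM: also part of the Gaussian process libraries; HC: hill climbing; a sequence that several methods proposed may carry one label only). In AlphaSeq, yeast of one mating type display the scFv and yeast of the other type display the target. The frequency of each diploid, read from paired DNA barcodes, reflects how well the two displayed proteins bind. The ratio of observed to expected reads was calibrated, replicate by replicate, on BCL2-family standards whose Kd was known from biolayer interferometry. Each pool was mated in six replicate cultures.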

The variants keep the light chain, the linker and the frameworks of Ab-14 (scFv order VH, a (GGGGS)3 linker, VL).
VH: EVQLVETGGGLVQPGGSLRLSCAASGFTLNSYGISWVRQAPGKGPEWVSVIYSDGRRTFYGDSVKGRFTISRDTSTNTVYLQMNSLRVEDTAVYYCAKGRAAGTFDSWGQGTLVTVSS
VL: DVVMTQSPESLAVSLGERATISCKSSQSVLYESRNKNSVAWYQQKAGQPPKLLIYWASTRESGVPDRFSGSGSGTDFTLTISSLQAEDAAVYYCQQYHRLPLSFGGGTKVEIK

Each variant is given by its three heavy chain CDRs, as the data file delimits them; those of the parent are GFTLNSYGIS, VIYSDGRRTFYGDSVK, GRAAGTFDS. The read-out is the apparent dissociation constant on a log10 scale (nM): the lower, the stronger. Replicates are averaged; those with no signal do not enter the mean. Where no diploid with the target was found in that replicate, the entry reads "ND": below detection, most likely a poor binder, though not proof of it. Where one sequence has several entries in the source, the replicates are listed entry by entry, parted by semicolons. The parent sequence was in this pool as ten entries: three were never detected, three once, and four in most replicates, with averages from 0.34 to 2.37. Background: pairings of all heavy chain designs with three empty control strains gave a value in 1% of cases (median 2.08, 5th percentile 0.84). Values in that range, when seen in few replicates, are hard to tell from nonspecific mating. Also given: how often the same scFv was detected with the empty control strains, with their mean in brackets. The range of this assay differs from that of the first round, and the authors advise against merging the two. The authors' rule: three or more of the six replicates give a measured affinity, fewer mean a poor binder.

{"CDR-H1": "GFTLNSYGIS", "CDR-H2": "VIYSDGRRCFYSDSVK", "CDR-H3": "GRAAGTFIC", "group": "Ctrl", "log10 Kd (nM) by replicate": "ND ND 1.48 ND 2.04 1.69", "mean log10 Kd (nM)": "1.74", "control signals": "0 of 18"}
{"CDR-H1": "GFELNSYGIS", "CDR-H2": "VIYSDGRRTFYGDSVK", "CDR-H3": "GMAAHTFDS", "group": "Ctrl", "log10 Kd (nM) by replicate": "ND ND ND ND ND ND", "mean log10 Kd (nM)": "ND", "control signals": "0 of 18"}
{"CDR-H1": "GFTLNEYGIH", "CDR-H2": "VIYSDGRRTAYGDSVK", "CDR-H3": "GRAAGTFHS", "group": "Ctrl", "log10 Kd (nM) by replicate": "ND ND ND ND ND ND", "mean log10 Kd (nM)": "ND", "control signals": "0 of 18"}
{"CDR-H1": "GFTLNSYGIS", "CDR-H2": "VIYSDGRRTFYGDAVK", "CDR-H3": "GQAAGTFDS", "group": "Ctrl", "log10 Kd (nM) by replicate": "1.40 3.27 1.71 ND 2.53 2.75", "mean log10 Kd (nM)": "2.33", "control signals": "0 of 18"}
{"CDR-H1": "GFTLNSHGIS", "CDR-H2": "VIYSDGFRTFYGDSVV", "CDR-H3": "GRAAGTFDS", "group": "Ctrl", "log10 Kd (nM) by replicate": "ND ND ND ND ND ND", "mean log10 Kd (nM)": "ND", "control signals": "0 of 18"}
{"CDR-H1": "GNTLNSYGIS", "CDR-H2": "VIYSDGRRTFYIDSTK", "CDR-H3": "GRGAGTPDS", "group": "Ctrl", "log10 Kd (nM) by replicate": "ND ND ND ND ND ND", "mean log10 Kd (nM)": "ND", "control signals": "0 of 18"}
{"CDR-H1": "GFTLNMYGIS", "CDR-H2": "VIYSDGRRTFYGDSVK", "CDR-H3": "GGAAGTFDV", "group": "Ctrl", "log10 Kd (nM) by replicate": "1.11 0.84 0.91 0.96 0.58 1.09", "mean log10 Kd (nM)": "0.92", "control signals": "1 of 18 (2.97)"}
{"CDR-H1": "GFTLESYGIS", "CDR-H2": "VIYSDGRRTFYGDSVK", "CDR-H3": "GTAAGTKDT", "group": "Ctrl", "log10 Kd (nM) by replicate": "0.82 0.79 0.66 1.73 ND 1.86", "mean log10 Kd (nM)": "1.17", "control signals": "0 of 18"}
{"CDR-H1": "GFTLNSYGIS", "CDR-H2": "VIYSDGRRTFYSDSVK", "CDR-H3": "GKAQGTFDA", "group": "Ctrl", "log10 Kd (nM) by replicate": "ND ND ND ND ND ND", "mean log10 Kd (nM)": "ND", "control signals": "1 of 18 (1.41)"}
{"CDR-H1": "GFTLNSYGIS", "CDR-H2": "VIYSDGRRTFYGDSVK", "CDR-H3": "GKAIGHFDS", "group": "Ctrl", "log10 Kd (nM) by replicate": "ND ND ND ND ND ND", "mean log10 Kd (nM)": "ND", "control signals": "0 of 18"}
{"CDR-H1": "GFTLNSYGVS", "CDR-H2": "VIYSDGRRTFYGDSVK", "CDR-H3": "GRACFGFDS", "group": "Ctrl", "log10 Kd (nM) by replicate": "1.14 ND ND 0.92 0.69 2.55", "mean log10 Kd (nM)": "1.33", "control signals": "0 of 18"}
{"CDR-H1": "GFTPLSYGIS", "CDR-H2": "VIYSDGRRTFYGDSVK", "CDR-H3": "GRAAGTFDS", "group": "Ctrl", "log10 Kd (nM) by replicate": "ND ND ND ND ND ND", "mean log10 Kd (nM)": "ND", "control signals": "0 of 18"}
{"CDR-H1": "GFTLNSYGIS", "CDR-H2": "VIYSDGRRTFYGDSVK", "CDR-H3": "SRIAGTFDS", "group": "Ctrl", "log10 Kd (nM) by replicate": "ND ND ND ND ND ND", "mean log10 Kd (nM)": "ND", "control signals": "0 of 18"}
{"CDR-H1": "GFTLNEYGIS", "CDR-H2": "VIYSDGRRTFYGDSVK", "CDR-H3": "GRAAVTFDS", "group": "Ctrl+GPLM_HC", "log10 Kd (nM) by replicate": "ND ND ND ND ND ND; ND 2.59 ND ND ND ND", "mean log10 Kd (nM)": "2.59", "control signals": "1 of 36 (3.44)"}
{"CDR-H1": "GFNIGSYGIS", "CDR-H2": "VIYSDGRRTFYGDSVA", "CDR-H3": "GRNGGTFDS", "group": "Ctrl", "log10 Kd (nM) by replicate": "2.80 ND ND 4.40 2.76 ND", "mean log10 Kd (nM)": "3.32", "control signals": "0 of 18"}
{"CDR-H1": "GFTLNSHGIS", "CDR-H2": "VIYSDGCRTFYGDSVK", "CDR-H3": "GRAAGTFDS", "group": "Ctrl", "log10 Kd (nM) by replicate": "ND 2.58 ND ND ND ND", "mean log10 Kd (nM)": "2.58", "control signals": "0 of 18"}
{"CDR-H1": "GFTLNSYGIS", "CDR-H2": "VIYSDGRRTFYGPSVK", "CDR-H3": "GIAAGTFES", "group": "Ctrl", "log10 Kd (nM) by replicate": "ND ND ND ND ND ND", "mean log10 Kd (nM)": "ND", "control signals": "0 of 18"}
{"CDR-H1": "GFTLNSYGIS", "CDR-H2": "VIYSDGRRTFYGDSTK", "CDR-H3": "GRAAGAFDS", "group": "Ctrl", "log10 Kd (nM) by replicate": "ND ND ND ND ND ND", "mean log10 Kd (nM)": "ND", "control signals": "0 of 18"}
{"CDR-H1": "GFDLNSYGIS", "CDR-H2": "VIYSDGRREFYGDSVK", "CDR-H3": "GRASGTFDS", "group": "Ctrl", "log10 Kd (nM) by replicate": "ND ND ND ND ND ND", "mean log10 Kd (nM)": "ND", "control signals": "0 of 18"}
{"CDR-H1": "GFTLNSYGGS", "CDR-H2": "VIYSDGRRTFYGDSVK", "CDR-H3": "GRARGTFDS", "group": "Ctrl", "log10 Kd (nM) by replicate": "ND ND ND ND ND ND", "mean log10 Kd (nM)": "ND", "control signals": "1 of 18 (2.40)"}
{"CDR-H1": "GFNLNSYGIS", "CDR-H2": "VIYSDGRRTFYGDSVK", "CDR-H3": "GRNAGGFDS", "group": "Ctrl", "log10 Kd (nM) by replicate": "ND ND ND ND ND ND", "mean log10 Kd (nM)": "ND", "control signals": "0 of 18"}
{"CDR-H1": "GFTLNSYGIS", "CDR-H2": "VIYSDGRRTFYSDSVK", "CDR-H3": "GRAAGTFIS", "group": "Ctrl", "log10 Kd (nM) by replicate": "ND ND ND ND ND ND", "mean log10 Kd (nM)": "ND", "control signals": "0 of 18"}
{"CDR-H1": "GFNLNSYGIS", "CDR-H2": "VIYSDGRRTFYQDSVK", "CDR-H3": "GGVAGTFDS", "group": "Ctrl", "log10 Kd (nM) by replicate": "1.08 0.45 0.77 -0.09 1.00 0.85", "mean log10 Kd (nM)": "0.68", "control signals": "0 of 18"}
{"CDR-H1": "GFTLNSYGIS", "CDR-H2": "VIYSDGRRTFYGDSVK", "CDR-H3": "GRAACAFDS", "group": "Ctrl", "log10 Kd (nM) by replicate": "ND ND ND ND ND ND", "mean log10 Kd (nM)": "ND", "control signals": "0 of 18"}
{"CDR-H1": "GFELNSYGIS", "CDR-H2": "VIYADGMRTFYGDSVK", "CDR-H3": "GRAAGTFDS", "group": "Ctrl", "log10 Kd (nM) by replicate": "0.20 0.43 -0.02 0.01 0.10 0.66", "mean log10 Kd (nM)": "0.23", "control signals": "0 of 18"}

Again, the first 4 entries without any signal:

{"CDR-H1": "GFELNSYGIS", "CDR-H2": "VIYSDGRRTFYGDSVK", "CDR-H3": "GMAAHTFDS", "group": "Ctrl", "log10 Kd (nM) by replicate": "ND ND ND ND ND ND", "mean log10 Kd (nM)": "ND", "control signals": "0 of 18"}
{"CDR-H1": "GFTLNEYGIH", "CDR-H2": "VIYSDGRRTAYGDSVK", "CDR-H3": "GRAAGTFHS", "group": "Ctrl", "log10 Kd (nM) by replicate": "ND ND ND ND ND ND", "mean log10 Kd (nM)": "ND", "control signals": "0 of 18"}
{"CDR-H1": "GFTLNSHGIS", "CDR-H2": "VIYSDGFRTFYGDSVV", "CDR-H3": "GRAAGTFDS", "group": "Ctrl", "log10 Kd (nM) by replicate": "ND ND ND ND ND ND", "mean log10 Kd (nM)": "ND", "control signals": "0 of 18"}
{"CDR-H1": "GNTLNSYGIS", "CDR-H2": "VIYSDGRRTFYIDSTK", "CDR-H3": "GRGAGTPDS", "group": "Ctrl", "log10 Kd (nM) by replicate": "ND ND ND ND ND ND", "mean log10 Kd (nM)": "ND", "control signals": "0 of 18"}

Reference: Li et al. 2023, doi:10.1038/s41467-023-39022-2. File: FLAb, binding data.